In patent EP2057188B1 (priority 2006, dated 2008):

Legend:
[1] = assay type: in vivo, NIH/Swiss mice; settings: AUC240
[2] = IVGTT duration of action assay, single SC injection; assay type: in vivo, rat; settings: compared with 0601GIP3794 (794); @ -120 min

SMILES: CC[C@H](C)[C@H](NC(=O)[C@H](CO)NC(=O)[C@H](Cc1ccc(O)cc1)NC(=O)[C@H](CC(=O)O)NC(=O)[C@H](CO)NC(=O)[C@@H](NC(=O)[C@H](Cc1ccccc1)NC(=O)[C@@H](NC(=O)CNC(=O)[C@H](CCC(=O)O)NC(=O)[C@@H](C)NC(=O)[C@H](Cc1ccc(O)cc1)NC(=O)[C@@H](N)CC(C)C)[C@@H](C)O)[C@@H](C)CC)C(=O)N[C@@H](C)C(=O)N[C@@H](CCSC)C(=O)N[C@@H](CC(=O)O)C(=O)N[C@@H](CCCCN)C(=O)N[C@H](C(=O)N[C@@H](Cc1c[nH]cn1)C(=O)N[C@@H](CCC(N)=O)C(=O)N[C@@H](CCC(N)=O)C(=O)N[C@@H](CC(=O)O)C(=O)N[C@@H](Cc1ccccc1)C(=O)N[C@H](C(=O)N[C@@H](CC(N)=O)C(=O)N[C@@H](Cc1c[nH]c2ccccc12)C(=O)N[C@@H](CC(C)C)C(=O)N[C@@H](CC(C)C)C(=O)N[C@@H](C)C(=O)N[C@@H](CCC(N)=O)C(=O)N[C@@H](CCCCN)C(=O)N1CCC[C@H]1C(=O)N[C@@H](CCCCN)C(=O)N[C@@H](CCCCN)C(=O)N[C@H](C(=O)N[C@@H](CCCNC(=N)N)C(=O)N[C@@H](Cc1ccc(O)cc1)C(=O)N[C@@H](CO)C(N)=O)[C@@H](C)CC)C(C)C)[C@@H](C)CC [0601 GIP47 98]
- Basal Glucose Lowering at 80 nmol/Kg [1]: -8%, AUC240
- Duration In The Rat IVGTT Assay [2]: < 3794 @ -120 min

SMILES: CC[C@H](C)[C@H](N)C(=O)N[C@@H](Cc1ccc(O)cc1)C(=O)N[C@H](C)C(=O)N[C@@H](CCC(=O)O)C(=O)NCC(=O)N[C@H](C(=O)N[C@@H](Cc1ccccc1)C(=O)N[C@H](C(=O)N[C@@H](CO)C(=O)N[C@@H](CC(=O)O)C(=O)N[C@@H](Cc1ccc(O)cc1)C(=O)N[C@@H](CO)C(=O)N[C@H](C(=O)N[C@@H](C)C(=O)N[C@@H](CCSC)C(=O)N[C@@H](CC(=O)O)C(=O)N[C@@H](CCCCN)C(=O)N[C@H](C(=O)N[C@@H](Cc1c[nH]cn1)C(=O)N[C@@H](CCC(N)=O)C(=O)N[C@@H](CCC(N)=O)C(=O)N[C@@H](CC(=O)O)C(=O)N[C@@H](Cc1ccccc1)C(=O)N[C@H](C(=O)N[C@@H](CC(N)=O)C(=O)N[C@@H](Cc1c[nH]c2ccccc12)C(=O)N[C@@H](CC(C)C)C(=O)N[C@@H](CC(C)C)C(=O)N[C@@H](C)C(=O)N[C@@H](CCC(N)=O)C(=O)N[C@@H](CCCCN)C(=O)N1CCC[C@H]1C(=O)N[C@@H](CCCCN)C(=O)N[C@@H](CCCCN)C(=O)N[C@H](C(=O)N[C@@H](CCCNC(=N)N)C(=O)N[C@@H](Cc1ccc(O)cc1)C(=O)N[C@@H](CO)C(N)=O)[C@@H](C)CC)C(C)C)[C@@H](C)CC)[C@@H](C)CC)[C@@H](C)CC)[C@@H](C)O [0601 GIP48 01]
- Basal Glucose Lowering at 80 nmol/Kg [1]: -1%, AUC240
